Values quoted from earlier work, collected in PMC6804162, “Inhibitory Effects of Novel 7-Substituted 6-iodo-3-O-Flavonol Glycosides against Cholinesterases and β-secretase Activities, and Evaluation for Potential Antioxidant Properties” (Molecules, 2019).

Sequences of proteins named here, by UniProt entry; tags and fusion partners are left off. Residues count along the entry.
UniProt P22303, 32-614 limits assumed: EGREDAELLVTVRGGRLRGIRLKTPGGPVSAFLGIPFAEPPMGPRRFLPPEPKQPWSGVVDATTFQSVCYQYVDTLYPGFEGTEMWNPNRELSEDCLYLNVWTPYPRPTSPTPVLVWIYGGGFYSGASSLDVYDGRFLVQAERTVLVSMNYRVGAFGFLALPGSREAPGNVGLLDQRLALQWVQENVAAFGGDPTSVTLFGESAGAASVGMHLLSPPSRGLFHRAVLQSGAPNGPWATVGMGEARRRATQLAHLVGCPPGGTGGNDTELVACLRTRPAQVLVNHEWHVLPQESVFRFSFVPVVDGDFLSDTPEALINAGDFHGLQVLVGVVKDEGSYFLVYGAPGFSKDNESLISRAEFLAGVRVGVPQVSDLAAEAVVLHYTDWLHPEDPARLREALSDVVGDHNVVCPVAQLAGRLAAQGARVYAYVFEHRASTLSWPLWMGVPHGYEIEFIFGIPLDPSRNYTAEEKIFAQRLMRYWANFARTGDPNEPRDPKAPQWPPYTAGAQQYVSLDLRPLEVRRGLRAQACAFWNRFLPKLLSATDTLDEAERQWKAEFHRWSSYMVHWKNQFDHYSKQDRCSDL

Target: acetylcholinesterase (AChE) (Homo sapiens, UniProt P22303)
Conditions: cited from earlier work

Structure (SMILES) | IC50 [µM]
O=c1c(O)c(-c2ccc(Cl)cc2)oc2cc(F)c(I)cc12 | 3.35
O=c1c(O)c(-c2ccc(Cl)cc2)oc2cc(Br)c(I)cc12 | 29.4
